In publication PMC2718698, “The TCL1A Oncoprotein Interacts Directly with the NF-κB Inhibitor IκB” (PLoS ONE, 2009):
Residue numbers refer to the chain shown, from its start.

T1: AKTβ PH domain, human AKTβ PH(1–118) (human, UniProt P31751 1-118)
T1 sequence (looked up): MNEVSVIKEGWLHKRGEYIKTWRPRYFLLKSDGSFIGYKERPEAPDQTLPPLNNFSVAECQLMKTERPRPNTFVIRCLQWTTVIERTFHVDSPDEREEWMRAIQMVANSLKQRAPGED

T2: IκBα ankyrin domain, human IκB(67–302) (human, UniProt P25963 67-302)
T2 construct: IκBα ankyrin domain, human, residues 67-302; the 20 C-terminal residues are not in the crystal structure 1NFI
T2 sequence (looked up): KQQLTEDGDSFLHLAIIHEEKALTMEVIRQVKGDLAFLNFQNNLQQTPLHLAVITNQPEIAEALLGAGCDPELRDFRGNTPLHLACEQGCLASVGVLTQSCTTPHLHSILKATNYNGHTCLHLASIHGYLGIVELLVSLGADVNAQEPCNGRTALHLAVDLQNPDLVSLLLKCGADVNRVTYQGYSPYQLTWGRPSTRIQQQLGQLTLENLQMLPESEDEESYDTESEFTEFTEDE

B1: IκB_ank^7CS bound to the NF-κB family member RELA (complex)
chain 1: T2 sequence (looked up) with C69S, C86S, C90S, C101S, C120S, C149S, C173S
chain 2: MDELFPLIFPAEPAQASGPYVEIIEQPKQRGMRFRYKCEGRSAGSIPGERSTDTTKTHPTIKINGYTGPGTVRISLVTKDPPHRPHPHELVGKDCRDGFYEAELCPDRCIHSFQNLGIQCVKKRDLEQAISQRIQTNNNPFQVPIEEQRGDYDLNAVRLCFQVTVRDPSGRPLRLPPVLSHPIFDNRAPNTAELKICRVNRNSGSCLGGDEIFLLCDKVQKEDIEVYFTGPGWEARGSFSQADVHRQVAIVFRTPPYADPSLQAPVRVSMQLRRPSDRELSEPMEFQYLPDTDDRHRIEEKRKRTYETFKSIMKKSPFSGPTDPRPPPRRIAVPSRSSASVPKPAPQPYPFTSSLSTINYDEFPTMVFPSGQISQASALAPAPPQVLPQAPAPAPAPAMVSALAQAPAPVPVLAPGPPQAVAPPAPKPTQAGEGTLSEALLQLQFDDEDLGALLGNSTDPAVFTDLASVDNSEFQQLLNQGIPVAPHTTEPMLMEYPEAITRLVTGAQRPPDPAPAPLGAPGLPNGLLSGDEDFSSIADMDFSALLSQISS
modifications: IkB limits 67-302 and the all-Cys-to-Ser (7CS) change are printed; the seven Cys positions come from the entry. RELA/p65 (pGEX2T) has no printed limits or species: taken as whole human protein …
B2: T cell leukaemia/lymphoma 1A (TCL1A), purified recombinant human protein (natural protein)
chain: MAECPTLGEAVTDHPDRLWAWEKFVYLDEKQHAWLPLTIEIKDRLQLRVLLRREDVVLGRPMTPTQIGPSLLPIMWQLYPDGRYRSSDSSFWRLVYHIKIDGVEDMLLELLPDD
notes: TCL1A, human; 7 N-terminal residues are not seen in the crystal structure 1JSG

Columns and labels:
Conditions in all cases: both partners purified
[1] = target: B2; experiment: ITC; data not shown; TCL1A injected into the cell filled with IκB_ank^7CS bound to RELA; 20°C; 20 mM sodium phosphate pH 7.1, 300 mM NaCl, 2 mM EGTA, 1 mM β-mercapto ethanol
[2] = target: T1, AKTβ PH domain, human AKTβ PH(1–118); experiment: ITC; AKT_PH (490 µM) injected into TCL1A (40 µM) or into equimolar TCL1A and IκB_ank^7CS in the cell; 20°C; 20 mM sodium phosphate pH 7.1, 300 mM NaCl, 2 mM EGTA, 1 mM β-mercapto ethanol
[3] = target: T2, IκBα ankyrin domain, human IκB(67–302); experiment: native gel or EMSA; native PAGE gel shift with purified recombinant proteins; Coomassie stain or Western blot with anti-IκBα

| Kd [1] | Kd [2] | binding result [3] | Binder |
| --- | --- | --- | --- |
| > 50 µM | – | – | B1 |
| – | 7.5 ± 1 µM | binds | B2 |
